{"sequences": {"note": "Amino acid sequences for entries named in this document (tags omitted).", "UniProt P41143, whole entry": "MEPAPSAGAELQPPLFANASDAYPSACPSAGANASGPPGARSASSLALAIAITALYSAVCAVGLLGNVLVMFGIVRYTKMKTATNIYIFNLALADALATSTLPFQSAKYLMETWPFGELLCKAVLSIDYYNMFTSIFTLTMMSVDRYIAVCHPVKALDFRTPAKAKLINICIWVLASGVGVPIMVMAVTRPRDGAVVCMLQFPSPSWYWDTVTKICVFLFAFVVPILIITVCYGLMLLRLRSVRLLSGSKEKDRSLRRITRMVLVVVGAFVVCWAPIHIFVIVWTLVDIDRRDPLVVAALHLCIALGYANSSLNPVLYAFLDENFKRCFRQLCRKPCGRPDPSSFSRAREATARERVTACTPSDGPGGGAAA", "UniProt P41145, whole entry": "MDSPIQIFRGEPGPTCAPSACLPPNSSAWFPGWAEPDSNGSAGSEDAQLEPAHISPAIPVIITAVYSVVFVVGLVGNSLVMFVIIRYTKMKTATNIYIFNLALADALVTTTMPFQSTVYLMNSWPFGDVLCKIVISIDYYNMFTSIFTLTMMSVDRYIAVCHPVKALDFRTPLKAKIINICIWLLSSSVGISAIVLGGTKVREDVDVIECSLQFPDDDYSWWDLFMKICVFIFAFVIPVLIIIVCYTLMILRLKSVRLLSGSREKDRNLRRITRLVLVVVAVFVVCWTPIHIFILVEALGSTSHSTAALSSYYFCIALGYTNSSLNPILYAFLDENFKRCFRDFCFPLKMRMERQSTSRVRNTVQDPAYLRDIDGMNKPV"}, "source": "ChEMBL document CHEMBL1137888", "about": "“1,3-Dihydro-2,1,3-benzothiadiazol-2,2-diones and 3,4-dihydro-1H-2,1,3-benzothidiazin-2,2-diones as ligands for the NOP receptor” (2004)", "key": {"[1]": {"target": "Delta-type opioid receptor (Homo sapiens, UniProt P41143)", "assay": "Inhibition of [3H]naltrindole binding to human Opioid receptor delta 1"}, "[2]": {"target": "Kappa-type opioid receptor (Homo sapiens, UniProt P41145)", "assay": "Inhibition of [3H]U-69593 binding to human Opioid receptor kappa 1"}}}
{"smiles": "CC(C)CCC(C)N1CCC(N2c3ccccc3NS2(=O)=O)CC1", "note": "(configuration not stated)", "values": [{"measurement": "Ki", "setting": "[1]", "result": "> 2", "unit": "µM"}, {"measurement": "Ki", "setting": "[2]", "result": "> 2", "unit": "µM"}]}
